Source: ChEMBL document CHEMBL4014346, “Lead Optimization Generates CYP11B1 Inhibitors of Pyridylmethyl Isoxazole Type with Improved Pharmacological Profile for the Treatment of Cushing's Disease” (J Med Chem, 2017)

Biological target: T1, Cytochrome P450 11B2, mitochondrial (Homo sapiens, UniProt P19099)
T1 sequence (P19099 whole entry): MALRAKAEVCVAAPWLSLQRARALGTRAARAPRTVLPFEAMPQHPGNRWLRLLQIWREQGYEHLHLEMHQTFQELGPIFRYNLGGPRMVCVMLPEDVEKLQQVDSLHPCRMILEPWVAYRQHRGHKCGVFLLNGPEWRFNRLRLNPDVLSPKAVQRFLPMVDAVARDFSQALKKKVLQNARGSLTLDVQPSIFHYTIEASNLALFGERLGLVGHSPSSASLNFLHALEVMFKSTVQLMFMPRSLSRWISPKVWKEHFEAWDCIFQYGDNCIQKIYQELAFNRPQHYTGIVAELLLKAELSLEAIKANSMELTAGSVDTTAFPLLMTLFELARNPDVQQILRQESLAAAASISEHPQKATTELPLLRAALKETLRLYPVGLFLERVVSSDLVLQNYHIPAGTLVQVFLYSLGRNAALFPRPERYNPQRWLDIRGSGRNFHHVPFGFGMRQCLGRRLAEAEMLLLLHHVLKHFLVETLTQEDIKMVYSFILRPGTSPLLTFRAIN
Test: Inhibition of human CYP11B2 expressed in hamster V79MZ cells using [1,2-3H]-11-deoxycorticosterone as substrate after 6 hrs by HPLC analysis
Assay type: ADME, cell-based
Method in brief: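 V79MZ cells expressing recombinant human CYP11B1 or CYP11B2, or rat CYP11B1, incubated with [1,2-³H]-11-deoxycorticosterone (100 nM) and inhibitor over a range of concentrations; ketoconazole as reference.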

IC50: 72 nM
SMILES: CC(C)(C(=O)c1cccnc1)c1cccnc1 [METYRAPONE]
